Target: Protease (Human immunodeficiency virus 1, UniProt Q9YQ12)
Assay: Inhibition of HIV1 subtype C protease expressed in Escherichia coli BL21 assessed as hydrolysis of substrate using chromogenic substrate Lys-Ala-Arg-Val-Nle-p-nitro-Phe-Glu-Ala-Nle-NH2 by spectrophotometric analysis

IC50: 25 nM
Structure (SMILES): Cc1cccc(C)c1OCC(=O)N[C@@H](Cc1ccccc1)[C@@H](O)C[C@H](Cc1ccccc1)NC(=O)[C@H](C(C)C)N1CCCNC1=O [LOPINAVIR]
